Molecular target: BRD4-BD1 (Homo sapiens, UniProt O60885)
Test: BRD4-H4 tetraacetylated peptide inhibition AlphaScreen
Conditions: read-out: BRD4-BD1 IC50; 15 nM GST-BRD4-BD1 (aa 44-168), 15 nM biotinylated Acetyl-Histone H4 (Lys5, 8, 12, 16) peptide, 30 min at RT

IC50: 0.048 µM
Structure (SMILES): Cc1cc(-c2nc3cc4c(nc3n2[C@@H](C)c2ccccc2)N(C)C(=O)C4(C)C)cn(C)c1=O

Reference: US9428515B2, “Benzimidazole derivatives” (Boehringer Ingelheim International GmbH, priority 2014, dated 2016)
